Values of other authors in publication PMC4646965.

Target: rhodopsin (UniProt P02699)

- Kd: 1300 nM
Substance: Rac1 (from UniProt P63000)
